Literature values, collected in publication PMC3409241, “Probing Cocaine-Antibody Interactions in Buffer and Human Serum” (PLoS ONE, 2012).
Counter-ions that a name gives are not always drawn.

Settings: patients who smoked 10–40 mg of cocaine base; cited from earlier work

Structure (SMILES): COC(=O)[C@H]1[C@@H](OC(=O)c2ccccc2)C[C@@H]2CC[C@H]1N2C [Cocaine, Cocaine hydrochloride]
- peak plasma concentrations: 150 to 500 nM
